# Apparent affinities of Ab-95 variants for a coronavirus HR2 peptide

The measurements come from Engelhart et al. 2022 (doi:10.1038/s41597-022-01779-4) through the FLAb antibody collection.

Target peptide (SARS-CoV-2 spike, HR2 region): PDVDLGDISGINAS

Parent scFv Ab-95: VH joined to VL by a 15-residue (Gly4Ser)3 linker. Changes lie in the light chain CDRs alone.
VH: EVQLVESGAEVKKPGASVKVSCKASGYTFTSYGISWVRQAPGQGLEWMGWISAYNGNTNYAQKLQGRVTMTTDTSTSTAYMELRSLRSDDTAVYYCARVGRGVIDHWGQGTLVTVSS
VL: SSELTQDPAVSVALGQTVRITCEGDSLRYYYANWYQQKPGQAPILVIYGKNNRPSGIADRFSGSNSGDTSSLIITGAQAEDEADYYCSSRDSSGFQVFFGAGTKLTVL

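Phage display of a naive human antibody library on the peptide gave the parent. AAYL52 was designed without a model: most single CDR substitutions and a random sample of double and triple ones. The assay is AlphaSeq: two haploid yeast populations carry antibody and antigen on their surface. The frequency of each diploid, read from paired DNA barcodes, reflects how well the two displayed proteins bind. A regression on co-assayed BCL2-family reference pairs converts the normalised counts of each replicate to an apparent Kd. There are three technical replicates.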

The parent's light chain CDRs are EGDSLRYYYAN, GKNNRPS, SSRDSSGFQVF; each variant's own CDRs replace them letter for letter.
All variants listed here change S88 of the VL, counted from its first residue.
Values are apparent Kd, the geometric mean of the replicates that gave a signal; lower means stronger binding.
"no signal" marks a missing value. The strain was present, yet no cells mated with the target were sequenced in any replicate, which points to weak or no binding.
Nonspecific signal, from three strains lacking the peptide, appeared in 28% of pairings of library AAYL52, centred on 8.2 µM (5% of these signals below 800 nM); values are not corrected for it.

CDR-L1,CDR-L2,CDR-L3,Kd,detected
EGDSLRYYYAN,GKNNRPS,HSRDSPGFQVQ,2.3 µM,3 of 3
EGDSLRYYYKN,GKNNRPS,HSRDSSGFQVR,89 nM,3 of 3
EGDSLRYYYAN,GKNNRPS,DSRDSSGFDVF,190 nM,3 of 3
EGDSLRYYYAN,GKKNRPS,ASTDSSGFQVF,23 µM,1 of 3
EGDSLRYYYAN,GKNNRPS,QSRDSSKFQVI,no signal,0 of 3
EGDSLRYYYAN,GMNNRPS,CSHDSSGFQVF,2.8 µM,1 of 3
EGDSLRTYYAN,GYNNRPS,CSRDSSGFQVF,4.2 µM,3 of 3
EGKQLRYYYAN,GKNNRPS,HSRDSSGFQVF,3.4 µM,2 of 3
EGDSLRYYHAN,GKNNRPD,DSRDSSGFQVF,340 nM,3 of 3
EGDSLRYYYAN,IKNNRPS,MSRDSSGFQVF,23 µM,1 of 3
EGDSLRYYYDN,GKNNRPS,KSRDSSGFQVF,6.7 µM,1 of 3
EGDSLRYTYAN,GKNNRPS,TTRDSSGFQVF,1.9 µM,3 of 3
EGDSLRYWYAN,GKNFRPS,MSRDSSGFQVF,230 nM,3 of 3
EGDSLRYYYAN,GKNNRPS,RSRDSSQFQVF,3.2 µM,2 of 3
EGDSLRYYYAN,GKNNRVS,KSRDPSGFQVF,310 nM,3 of 3
EGDSLRYYYAN,GKNKRPS,LSRDSSGFFVF,620 nM,3 of 3
EGDSHREYYAN,GKNNRPS,WSRDSSGFQVF,220 µM,1 of 3
EGDSLRYYYAM,GKNNRPS,NSRDSIGFQVF,5.7 µM,2 of 3
EGDSLRYYDAN,GKNNRPS,WSRQSSGFQVF,130 nM,3 of 3
EGDSLRYYYAN,GKRNRPS,CSRDSSTFQVF,22 µM,1 of 3
EGDSLRYYYAN,GKHNRPS,FSRDSSDFQVF,4.5 µM,3 of 3
EIDSLRYYYAN,GKNNRPS,PSRDSSGFQRF,6.1 µM,1 of 3
EGDSLREYYAN,GKNNRPS,PSRDSSGFQVF,150 nM,3 of 3
EGDSLRYYYAN,GKNIRPS,NSRESSGFQVF,no signal,0 of 3
EGDSLRYYYAN,GKNNRPS,KSRDSSGFTVV,no signal,0 of 3
IGDSLRYYYAN,GINNRPS,ASRDSSGFQVF,1.2 µM,3 of 3
EGDSLRYYYAN,GKNRRPS,CSRDSSGFDVF,1.0 µM,3 of 3
ECWSLRYYYAN,GKNNRPS,CSRDSSGFQVF,34 µM,1 of 3
EGDSLRYYYAN,GKNNRPR,NSRDSSGFQVF,550 nM,3 of 3
EGDSLRYYYAN,GKNNRPS,CSRDKSGFQGF,no signal,0 of 3
EGDSLRYYYAN,GKNNAPS,NSADSSGFQVF,2.8 µM,2 of 3
EGDSLRNYYAN,GKNNRPS,KSRDSSGFQVF,29 nM,3 of 3
WGDSLRYYYAN,GKNNIPS,PSRDSSGFQVF,5.8 µM,3 of 3
EGDSLRYYYAN,GKNNNPS,ISRDSSLFQVF,1.5 µM,2 of 3
EGDSLRYYYAN,GKNNRPS,GSRDSSGFQSF,2.0 µM,3 of 3
EGFSLRYYYAN,GKNNRPS,YSRDSSGFKVF,730 nM,3 of 3
EGDSLRYYYAN,GKNNYPS,LSRDDSGFQVF,no signal,0 of 3
EGDSLRYYYAN,GKNNWPS,PSRDDSGFQVF,66 µM,1 of 3
EGDSLRYYYAN,GKNNRPS,QSRWISGFQVF,500 µM,1 of 3
EGDSWRYYYAN,GKRNRPS,KSRDSSGFQVF,1.3 µM,1 of 3
EGDSLRYYYAN,GKNNRPS,CSRDSSGWQVF,8.6 µM,1 of 3
EGDSLRTYYAN,GKNNRPS,ESRDSSGFQVF,19 nM,3 of 3
EGDSLYYYYAN,GKNNRPS,TSRDSRGFQVF,7.6 µM,2 of 3
EGDCLRYYYAN,QKNNRPS,LSRDSSGFQVF,12 µM,2 of 3
EGDSLAYMYAN,GKNNRPS,RSRDSSGFQVF,3.1 µM,2 of 3
PGDSLFYYYAN,GKNNRPS,NSRDSSGFQVF,no signal,0 of 3
EGDSLRYYYFN,GFNNRPS,NSRDSSGFQVF,1.3 µM,2 of 3
EGDSKRYYYAN,GKNNRPS,FSRDSSGFSVF,no signal,0 of 3
EGSSLRCYYAN,GKNNRPS,PSRDSSGFQVF,9.8 µM,3 of 3
EGDSLNYYYAN,LKNNRPS,PSRDSSGFQVF,1.9 µM,1 of 3
EGDSLRYYYAN,GKNNQPS,TSRDSSGFPVF,5.5 µM,3 of 3
EGDSLRFYYAN,GKNNRPS,YERDSSGFQVF,1.6 µM,2 of 3
EGDSLRYYYAN,GKNNRPC,FSRDSSGFQVF,1.3 µM,3 of 3
EGDSIRYYYAN,GKNNRPS,GSRDSSGFQEF,98 nM,3 of 3
EGDSLRYYYAN,FKNNRPS,ESRDSSGFQVF,no signal,0 of 3
ECDSLRYYYAN,GFNNRPS,GSRDSSGFQVF,no signal,0 of 3
EGDSLRYYYAN,GKNNRPS,VSRDSSGFQVC,2.0 µM,3 of 3

Extract of 10 entries:

| CDR-L1 | CDR-L2 | CDR-L3 | Kd | detected |
|---|---|---|---|---|
| EGSSLRCYYAN | GKNNRPS | PSRDSSGFQVF | 9.8 µM | 3 of 3 |
| EGDSLAYMYAN | GKNNRPS | RSRDSSGFQVF | 3.1 µM | 2 of 3 |
| EGDSLRYYYAN | GKKNRPS | ASTDSSGFQVF | 23 µM | 1 of 3 |
| EGDSLRYYYKN | GKNNRPS | HSRDSSGFQVR | 89 nM | 3 of 3 |
| EGDSLRYTYAN | GKNNRPS | TTRDSSGFQVF | 1.9 µM | 3 of 3 |
| EGDSLRYYYAN | GKNNWPS | PSRDDSGFQVF | 66 µM | 1 of 3 |
| EGDSKRYYYAN | GKNNRPS | FSRDSSGFSVF | no signal | 0 of 3 |
| EGDSLRYYYAN | GKHNRPS | FSRDSSDFQVF | 4.5 µM | 3 of 3 |
| EGDSLRYYYAN | GKNNRPS | CSRDKSGFQGF | no signal | 0 of 3 |
| EGDSLRYYYAN | GKNNRPS | KSRDSSGFTVV | no signal | 0 of 3 |